Values of other authors as cited in patent publication US20240166770A1, “COMPOSITIONS AND METHODS FOR INHIBITION OF CELL-PENETRATING ANTIBODIES” (Yale University, priority 2019, published 2024).
Where two headings read alike, the source gives them in different places.

Amino acid sequences for entries named in this document (tags omitted).
UniProt Q14542, whole entry: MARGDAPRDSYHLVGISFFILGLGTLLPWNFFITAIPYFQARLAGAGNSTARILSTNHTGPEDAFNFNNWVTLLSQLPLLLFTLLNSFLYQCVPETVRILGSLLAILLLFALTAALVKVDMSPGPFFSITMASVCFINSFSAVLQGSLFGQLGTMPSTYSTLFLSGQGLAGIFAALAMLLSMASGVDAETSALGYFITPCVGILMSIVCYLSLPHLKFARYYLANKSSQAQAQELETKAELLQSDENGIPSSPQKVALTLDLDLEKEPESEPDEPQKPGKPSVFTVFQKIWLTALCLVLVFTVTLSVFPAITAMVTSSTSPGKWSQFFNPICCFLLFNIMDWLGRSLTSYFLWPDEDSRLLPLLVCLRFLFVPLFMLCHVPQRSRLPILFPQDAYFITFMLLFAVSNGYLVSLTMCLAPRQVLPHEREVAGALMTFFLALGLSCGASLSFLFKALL
UniProt Q7RTT9, whole entry: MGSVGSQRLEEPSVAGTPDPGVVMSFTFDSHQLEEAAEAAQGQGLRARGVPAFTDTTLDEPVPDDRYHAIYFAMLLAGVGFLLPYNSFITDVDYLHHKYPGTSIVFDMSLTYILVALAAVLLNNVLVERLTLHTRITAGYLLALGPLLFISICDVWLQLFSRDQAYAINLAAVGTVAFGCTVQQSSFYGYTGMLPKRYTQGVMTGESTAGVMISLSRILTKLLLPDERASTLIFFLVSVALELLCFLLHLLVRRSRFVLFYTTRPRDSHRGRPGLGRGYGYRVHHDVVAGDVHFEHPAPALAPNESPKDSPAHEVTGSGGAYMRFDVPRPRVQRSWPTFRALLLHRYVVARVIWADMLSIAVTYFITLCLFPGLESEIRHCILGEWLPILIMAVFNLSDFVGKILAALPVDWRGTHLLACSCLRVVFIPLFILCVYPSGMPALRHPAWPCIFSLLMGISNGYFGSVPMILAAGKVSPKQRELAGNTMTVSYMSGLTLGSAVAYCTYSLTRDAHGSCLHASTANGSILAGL
UniProt Q99808, whole entry: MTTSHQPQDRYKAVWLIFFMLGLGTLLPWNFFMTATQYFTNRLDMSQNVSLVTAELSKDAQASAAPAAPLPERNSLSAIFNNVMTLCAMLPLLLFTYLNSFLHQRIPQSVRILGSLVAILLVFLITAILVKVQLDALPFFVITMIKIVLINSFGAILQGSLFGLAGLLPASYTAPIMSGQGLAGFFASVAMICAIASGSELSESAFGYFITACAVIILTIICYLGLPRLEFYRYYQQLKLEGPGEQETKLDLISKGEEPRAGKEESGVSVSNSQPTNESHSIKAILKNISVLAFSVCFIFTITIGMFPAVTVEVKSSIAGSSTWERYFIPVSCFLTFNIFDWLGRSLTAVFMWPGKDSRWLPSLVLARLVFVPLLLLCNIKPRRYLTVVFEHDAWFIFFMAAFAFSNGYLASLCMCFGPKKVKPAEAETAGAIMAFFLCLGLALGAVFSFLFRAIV

What was measured:
hENT2 = hENT2 (Homo sapiens, UniProt Q14542); details: read-out: hENT2 IC50, cited from earlier work
hENT4 = hENT4 (Homo sapiens, UniProt Q7RTT9); details: read-out: hENT4 IC50, cited from earlier work
hENT1 = hENT1 (Homo sapiens, UniProt Q99808); details: read-out: hENT1 IC50, cited from earlier work
[1] = Table 1, different ring systems at the 4- and 8-positions
[2] = Table 2, opening chain analogues
[3] = Table 3, free hydrogen on the nitrogen of 4- and 8-position substituents

OCCNc1nc(N2CCCCCCCC2)c2nc(NCCO)nc(N3CCCCCCCC3)c2n1
IC50 (hENT2; [1]): 1.39 µM | IC50 (hENT4; [1]): 0.513 µM

CCCN(CCC)c1nc(NCCO)nc2c(N(CCC)CCC)nc(NCCO)nc12
IC50 (hENT1; [2]): 7.46 µM | IC50 (hENT4; [2]): 0.0977 µM

CCCNc1nc(NCCO)nc2c(NCCC)nc(NCCO)nc12
IC50 (hENT1; [3]): 3.88 µM | IC50 (hENT4; [3]): 10.1 µM

CC(C)CNc1nc(NCCO)nc2c(NCC(C)C)nc(NCCO)nc12
IC50 (hENT1; [3]): 0.784 µM | IC50 (hENT2; [3]): 1.49 µM | IC50 (hENT4; [3]): 8.66 µM

CC(C)(C)Nc1nc(NCCO)nc2c(NC(C)(C)C)nc(NCCO)nc12
IC50 (hENT1; [3]): 6.54 µM | IC50 (hENT4; [3]): 3.27 µM

CC(C)Nc1nc(NCCO)nc2c(NC(C)C)nc(NCCO)nc12
IC50 (hENT1; [3]): 5.87 µM | IC50 (hENT4; [3]): 11.6 µM

CCCCCNc1nc(NCCO)nc2c(NCCCCC)nc(NCCO)nc12
IC50 (hENT4; [3]): 3.07 µM

CC(C)CN(CC(C)C)c1nc(NCCO)nc2c(N(CC(C)C)CC(C)C)nc(NCCO)nc12
IC50 (hENT4; [2]): 0.0744 µM

OCCNc1nc(N2CCCCCC2)c2nc(NCCO)nc(N3CCCCCC3)c2n1
IC50 (hENT1; [1]): 0.466 µM | IC50 (hENT4; [1]): 0.595 µM

CC(C)CCNc1nc(NCCO)nc2c(NCCC(C)C)nc(NCCO)nc12
IC50 (hENT1; [3]): 1.17 µM | IC50 (hENT4; [3]): 3.76 µM

COCCN(CCOC)c1nc(NCCO)nc2c(N(CCOC)CCOC)nc(NCCO)nc12
IC50 (hENT1; [2]): 4.22 µM | IC50 (hENT2; [2]): 8.06 µM | IC50 (hENT4; [2]): 80.4 µM

CCC(C)(C)Nc1nc(NCCO)nc2c(NC(C)(C)CC)nc(NCCO)nc12
IC50 (hENT1; [3]): 2.61 µM | IC50 (hENT4; [3]): 1.34 µM

CCN(CC)c1nc(NCCO)nc2c(N(CC)CC)nc(NCCO)nc12
IC50 (hENT1; [2]): 0.613 µM | IC50 (hENT2; [2]): 4.22 µM | IC50 (hENT4; [2]): 3.13 µM

CCCCN(CCCC)c1nc(NCCO)nc2c(N(CCCC)CCCC)nc(NCCO)nc12
IC50 (hENT2; [2]): 1.31 µM | IC50 (hENT4; [2]): 0.871 µM

OCCNc1nc(N2CCCC2)c2nc(NCCO)nc(N3CCCC3)c2n1
IC50 (hENT1; [1]): 0.116 µM | IC50 (hENT4; [1]): 3.91 µM

OCCNc1nc(N2C3CCCC2CC3)c2nc(NCCO)nc(N3C4CCCC3CC4)c2n1
IC50 (hENT4; [1]): 0.324 µM

CCNc1nc(NCCO)nc2c(NCC)nc(NCCO)nc12
IC50 (hENT4; [3]): 38.5 µM

CCCCNc1nc(NCCO)nc2c(NCCCC)nc(NCCO)nc12
IC50 (hENT2; [3]): 2.2 µM | IC50 (hENT4; [3]): 3.87 µM

OCCNc1nc(NC2CCCCC2)c2nc(NCCO)nc(NC3CCCCC3)c2n1
IC50 (hENT4; [3]): 65.3 µM
